Values of other authors, collected in patent US20140171466A1, “PAIN MANAGEMENT IN SICKLE CELL ANEMIA” (priority 2012, published 2014).
Where a name gives a salt, the structure may show the parent alone.

System: mu-, κ-, δ-, and nociceptin-opioid receptors

## CO[C@]12CC[C@@]3(C[C@@H]1C(C)(O)C(C)(C)C)[C@H]1Cc4ccc(O)c5c4[C@@]3(CCN1CC1CC1)C2O5 (stereo partly drawn) [Compound 14, [5α,7α(S)]-17-(cyclopropylmethyl)-α-(1,1-dimethylethyl)-4,5-epoxy-18,19-dihydro-3-hydroxy-6-methoxy-α-methyl-6,14-ethenomorphinan-7-methanol, hydrochloride]
  affinity to opioid receptor subtypes: high affinity
